# Patent publication US6723733B2, “Sulfonamide and carbamide derivatives of 6(5H)phenanthridinones and their uses” (Guilford Pharmaceuticals, Inc., priority 2000, dated 2004)
# By UniProt entry, the sequences of proteins in these tests, tags left out.
# UniProt P09874, whole entry: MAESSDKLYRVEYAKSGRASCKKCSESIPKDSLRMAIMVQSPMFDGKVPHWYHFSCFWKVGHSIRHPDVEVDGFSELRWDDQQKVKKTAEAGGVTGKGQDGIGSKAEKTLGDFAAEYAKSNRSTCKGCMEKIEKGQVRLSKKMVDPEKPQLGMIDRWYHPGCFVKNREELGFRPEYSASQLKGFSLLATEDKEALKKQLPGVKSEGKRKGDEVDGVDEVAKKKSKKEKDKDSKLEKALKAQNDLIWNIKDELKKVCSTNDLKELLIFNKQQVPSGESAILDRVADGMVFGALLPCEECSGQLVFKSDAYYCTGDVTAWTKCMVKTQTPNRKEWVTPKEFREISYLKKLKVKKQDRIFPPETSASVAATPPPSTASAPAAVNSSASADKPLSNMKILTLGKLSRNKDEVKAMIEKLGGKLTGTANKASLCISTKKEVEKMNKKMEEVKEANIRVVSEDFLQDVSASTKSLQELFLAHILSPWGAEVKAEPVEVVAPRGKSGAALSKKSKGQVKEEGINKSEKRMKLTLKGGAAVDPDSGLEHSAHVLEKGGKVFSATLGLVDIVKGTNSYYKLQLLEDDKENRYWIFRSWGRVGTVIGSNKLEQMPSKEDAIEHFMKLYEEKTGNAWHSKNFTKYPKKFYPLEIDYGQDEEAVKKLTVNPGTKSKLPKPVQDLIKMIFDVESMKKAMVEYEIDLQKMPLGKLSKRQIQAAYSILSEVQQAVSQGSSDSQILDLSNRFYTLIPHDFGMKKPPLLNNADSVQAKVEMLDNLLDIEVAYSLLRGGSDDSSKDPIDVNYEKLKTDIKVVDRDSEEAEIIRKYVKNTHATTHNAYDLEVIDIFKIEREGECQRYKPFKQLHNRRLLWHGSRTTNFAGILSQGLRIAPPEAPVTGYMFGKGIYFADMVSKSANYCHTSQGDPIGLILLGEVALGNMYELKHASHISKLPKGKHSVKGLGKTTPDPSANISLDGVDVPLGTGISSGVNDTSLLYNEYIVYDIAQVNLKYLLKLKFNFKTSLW
# Target: purified recombinant human PARP (Homo sapiens, UniProt P09874)
# Assay: PARP enzyme assay (IC50), [3H]NAD incorporation
# Assay type: biochemical
# Conditions: approximate IC50 values; 25° C., 15 minutes
row,IC50,Structure (SMILES)
1,1270 nM,Cc1cccc2c(=O)[nH]c3cc(C(F)(F)F)c(NC(=O)c4ccc(F)cc4)cc3c12
2,20 nM,O=C(N[C@@H](CO)C(=O)O)c1ccc2c(c1)[nH]c(=O)c1ccccc12
